In patent US20110020925A1, “NEW MODULATING MOLECULES FOR AN IMPROVED REGULATED EXPRESSION SYSTEM” (BAYER SCHERING PHARMA AKTIENGESELLSCHAFT, priority 2007, published 2011):

Assays:
[1] = mice, rats and monkeys; cited from earlier work
[2] = Pharmacokinetics of bolus recombinant hIFN-β1a protein in mice, serum hIFN-β ELISA
[3] = biological target: T1, human Progesterone receptor (Homo sapiens, UniProt P06401); experiment: Secondary PR assay in T47D cells (PR-induced alkaline phosphatase activity, 200 pM Promegestone); assay type: cell-based; conditions: 24 hours
T1 construct: PR-rich human T47D cells were seeded in 96-well plates; endogenous in cells; host or cells: T47D human breast carcinoma cells (ATCC # HTB-133)
T1 sequence (P06401 1-933): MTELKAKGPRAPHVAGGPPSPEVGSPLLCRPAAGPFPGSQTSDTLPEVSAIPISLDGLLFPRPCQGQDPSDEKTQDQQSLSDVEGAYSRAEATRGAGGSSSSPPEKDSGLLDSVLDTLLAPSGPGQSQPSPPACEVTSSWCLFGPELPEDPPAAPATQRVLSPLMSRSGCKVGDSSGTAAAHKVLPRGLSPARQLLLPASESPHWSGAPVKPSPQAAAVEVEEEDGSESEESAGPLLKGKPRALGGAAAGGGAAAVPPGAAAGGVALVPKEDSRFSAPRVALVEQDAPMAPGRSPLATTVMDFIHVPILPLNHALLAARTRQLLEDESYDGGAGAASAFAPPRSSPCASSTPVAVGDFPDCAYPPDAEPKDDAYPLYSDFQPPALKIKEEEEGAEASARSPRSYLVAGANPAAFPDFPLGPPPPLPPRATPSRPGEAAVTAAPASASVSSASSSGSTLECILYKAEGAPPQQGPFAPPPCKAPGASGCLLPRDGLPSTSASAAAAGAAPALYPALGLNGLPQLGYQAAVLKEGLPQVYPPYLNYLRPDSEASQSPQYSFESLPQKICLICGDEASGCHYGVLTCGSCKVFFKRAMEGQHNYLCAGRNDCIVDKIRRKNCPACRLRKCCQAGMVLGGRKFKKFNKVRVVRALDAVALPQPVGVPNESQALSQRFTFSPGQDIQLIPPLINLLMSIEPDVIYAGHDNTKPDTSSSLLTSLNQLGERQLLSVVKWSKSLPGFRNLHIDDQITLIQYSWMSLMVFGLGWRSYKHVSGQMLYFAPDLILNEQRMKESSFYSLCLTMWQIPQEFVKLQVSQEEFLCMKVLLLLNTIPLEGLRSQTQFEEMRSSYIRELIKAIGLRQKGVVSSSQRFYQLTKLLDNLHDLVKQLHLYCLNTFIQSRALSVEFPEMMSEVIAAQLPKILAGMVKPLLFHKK

Compound	half-life (t1/2) [1]	decrease of hIFN-β1a serum level from maximum by 6 hours ([2]; i.m. injection)	time of maximum hIFN-β1a serum level post-injection ([2]; i.m. injection) [h]	difference in serum hIFN-β1a level between the high and low dose ([2]; i.v. and i.m., 250 ng vs 25 ng) [fold]	time by which serum hIFN-β1a levels were near the limit of detection ([2]; i.v. injection, 25 ng or 250 ng, LOD=12.5 pg/ml) [h]	inhibition of PR-dependent AP expression [3] [%]
hIFN-β1a: recombinant human interferon-β 1a protein given as bolus injection	approximately 1 hours	approximately 10 fold	2	10	≤ 6	–
CC#C[C@]1(O)CC[C@H]2[C@@H]3CCC4=CC(=O)CCC4=C3[C@@H](c3ccc(N(C)C)cc3)C[C@@]21C [MFP, 11-(4-dimethylaminophenyl)-17-hydroxy-17c-propynyl-4,9-estradiene-3-one]	–	–	–	–	–	100
PEGylated form of IFN-β1a: IFN-β1a with attached 20-kDa polymer of polyethylene glycol (literature)	~10 h	–	–	–	–	–
